Measured melting point values of organic chemicals

Data: OPERA 2.9 data sets, kmansouri/OPERA on GitHub.

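The numbers are reported measurements, compiled and curated for the OPERA QSAR suite. The files give a single number for a compound and property, which may rest on several reports. Method, purity and exact conditions of the single measurements are not given. A value may pool stereoisomers or salt forms, and the file does not say which form was measured. Some entries may be limits or estimates that an upstream database listed as plain numbers.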

The melting point is given in degrees Celsius. Cells with "–" have no entry in this list.

structure (SMILES)	name	mp (°C)
CC(=O)Nc1ccc(I)cc1	Acetamide, N-(4-iodophenyl)-	184
COC(=O)CC(OC)c1ccc(OC)cc1 (stereo not drawn)	Methyl beta,4-dimethoxybenzenepropanoate	15.7
Cc1ccc(CNC(=O)C2CCNCC2)cc1	N-(4-methylbenzyl)piperidine-4-carboxamide	158
NC(=NO)c1cccc(Br)c1	3-Bromo-N-hydroxy-benzamidine	133
O=C(CC(F)(F)F)c1ccccc1	3,3,3-trifluoro-1-phenylpropan-1-one	38
O=C(CCl)c1c[nH]c2ccccc12	3-Chloroacetylindole	184
CC(C)(C)c1cc(-c2cc(C(C)(C)C)cc(C(C)(C)C)c2O)c(O)c(C(C)(C)C)c1	–	196.7
O=C(CCl)c1ccc2[nH]c(=O)[nH]c2c1	5-(2-Chloro-acetyl)-1,3-dihydro-benzoimidazol-2-one	284
O=C1NC(=O)N(C2CC2)C1=O	1-cyclopropylimidazolidine-2,4,5-trione	116
COCc1ccc(C(=O)O)o1	5-(methoxymethyl)furan-2-carboxylic acid	64
O=C(O)CCCCCCC/C=C/CCCCCCCC(=O)O	(9E)-9-Octadecenedioic acid	89.5
O=C(O)c1cccc(S(=O)(=O)NCc2ccccc2)c1	3-Benzylsulfamoyl-benzoic acid	226
Cn1c(COc2ccc(Cl)cc2)n[nH]c1=S	–	119
CC(=O)NC1CC(C)(C)NC(C)(C)C1	Acetamide, N-(2,2,6,6-tetramethyl-4-piperidinyl)-	110.5
NC1CCN(C(=O)C2CCCCC2)CC1	(4-Aminopiperidin-1-yl)(cyclohexyl)methanone	79
O=C(CCl)NCCCc1ccccc1	2-chloro-N-(3-phenylpropyl)acetamide	77.5
O=C(O)C1=COCCO1	5,6-Dihydro-[1,4]dioxine-2-carboxylic acid	165
CC(C=CC=C(C)C=C[C@H]1C(C)=C[C@H](O)CC1(C)C)=CC=CC=C(C)C=CC=C(C)[C@H]1C=C2C(C)(C)C[C@H](O)C[C@@]2(C)O1	Flavoxanthin	184
CC(C)CCC(C)Nc1ccc(Nc2ccccc2)cc1 (stereo not drawn)	N-(5-Methyl-2-hexyl)-N'-phenyl-p-phenylenediamine	29.8
CCOc1ccc(C(=O)CC(=O)C(=O)OC)cc1	methyl 4-(4-ethoxyphenyl)-2,4-dioxobutanoate	90
Nc1nc(-c2cccc(Cl)c2)cs1	4-(3-chlorophenyl)thiazol-2-amine	126
C=CN1CCN(C=C)C1=O	2-Imidazolidinone, 1,3-diethenyl-	69
Clc1cccc(-c2c(Cl)c(Cl)cc(Cl)c2Cl)c1Cl	2,2',3,3',5,6-Hexachlorobiphenyl	132
CNS(=O)(=O)c1cc(OC)c(N)cc1C	Benzenesulfonamide, 4-amino-5-methoxy-N,2-dimethyl-	135
CN(C)[C@@H]1C(O)=C(C(N)=O)C(=O)[C@@]2(O)C(O)=C3C(=O)c4c(O)ccc(Cl)c4[C@@H](O)[C@H]3C[C@@H]12	Demeclocycline	221.5
C=C(C)C(=O)Nc1ccc(S(=O)(=O)Nc2nc(C)cc(C)n2)cc1	–	237.2
O=C1CCCCCN1CO	2H-Azepin-2-one, hexahydro-1-(hydroxymethyl)-	65
Nc1ccc(NS(=O)(=O)c2ccc(N)cc2)cc1	Benzenesulfonamide, 4-amino-N-(4-aminophenyl)-	138.5
NC(=S)c1cc2ccccc2oc1=O	2-oxo-2H-chromene-3-carbothioamide	242
O=C1c2ccccc2C(=O)N1CCS(=O)(=O)Cl	2-Phthalimidoethanesulfonyl chloride	159.1
CCCCCCCCCCOS(=O)(=O)[O-].[Na+]	Sodium decyl sulfate	168
CN1c2ccccc2C(=O)c2ccc(Cl)cc2S1(=O)=O	–	174
CN1CCCCC1CCN1c2ccccc2Sc2ccc(S(C)(=O)=O)cc21 (racemic)	–	122
CC1=CC(C)=NS(=O)(=O)N1	3,5-Dimethyl-1lambda~6~,2,6-thiadiazine-1,1(2H)-dione	120
Clc1ncnc2sc3c(c12)CCCC3	4-chloro-5,6,7,8-tetrahydrobenzo[4,5]thieno[2,3-d]pyrimidine	95.5
COc1cc([N+](=O)[O-])cc2sc(N)nc12	4-methoxy-6-nitro-1,3-benzothiazol-2-amine	280
O=C1N[C@@H](Cc2ccccc2)[C@@H](CCC(F)(F)C(F)(F)C(F)(F)C(F)(F)C(F)(F)C(F)(F)F)O1	–	92.5
CC1(C)NCCS1	2,2-Dimethylthiazolidine	13
CC(=O)O[Si](C)(OC(C)=O)OC(C)C	Silanediol, 1-methyl-1-(1-methylethoxy)-, 1,1-diacetate	-139
CC(=O)c1ccc(S(N)(=O)=O)cc1	Benzenesulfonamide, p-acetyl- (6CI,7CI,8CI)	179
O=C(O)c1ccc(NC(=O)C2CC2)cc1	4-[(cyclopropylcarbonyl)amino]benzoic acid	275
COc1ccc2c(CCl)cc(=O)oc2c1	4-Chloromethyl-7-methoxy-chromen-2-one	190